Results on one molecule are retold here after ChEMBL document CHEMBL1133454, “Structure-activity studies of reduced-size gonadotropin-releasing hormone agonists derived from the sequence of an endothelin antagonist” (J Med Chem, 2000).

Sequences of proteins named here, by UniProt entry; tags and fusion partners are left off. A change or cut given only in a name is not applied to a line headed by its entry.
UniProt P26684: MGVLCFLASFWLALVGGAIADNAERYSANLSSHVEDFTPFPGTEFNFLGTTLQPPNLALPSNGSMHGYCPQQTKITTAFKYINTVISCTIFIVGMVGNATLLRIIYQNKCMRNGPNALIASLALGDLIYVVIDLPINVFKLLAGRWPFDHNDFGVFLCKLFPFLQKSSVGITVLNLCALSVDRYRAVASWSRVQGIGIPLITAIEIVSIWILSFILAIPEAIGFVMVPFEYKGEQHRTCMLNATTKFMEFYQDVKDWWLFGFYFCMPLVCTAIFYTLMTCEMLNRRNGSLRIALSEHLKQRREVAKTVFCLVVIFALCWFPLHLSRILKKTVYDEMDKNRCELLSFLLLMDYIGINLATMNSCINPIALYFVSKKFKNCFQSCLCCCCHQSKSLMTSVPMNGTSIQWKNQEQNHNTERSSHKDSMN
UniProt P21451: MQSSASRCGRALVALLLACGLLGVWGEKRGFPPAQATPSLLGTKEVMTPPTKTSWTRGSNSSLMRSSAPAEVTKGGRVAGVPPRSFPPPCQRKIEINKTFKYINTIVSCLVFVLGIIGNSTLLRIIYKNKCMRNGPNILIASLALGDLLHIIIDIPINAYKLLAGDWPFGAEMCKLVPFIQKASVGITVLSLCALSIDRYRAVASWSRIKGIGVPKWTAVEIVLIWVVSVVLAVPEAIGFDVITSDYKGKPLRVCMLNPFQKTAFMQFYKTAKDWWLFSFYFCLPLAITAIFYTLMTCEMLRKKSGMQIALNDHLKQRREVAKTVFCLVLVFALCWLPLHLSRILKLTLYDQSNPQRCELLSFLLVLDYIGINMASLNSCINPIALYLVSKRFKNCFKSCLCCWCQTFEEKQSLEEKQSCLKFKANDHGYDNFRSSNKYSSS

The test deals with Endothelin receptor (Rattus norvegicus, UniProt P26684+P21451). The experiment in a line: Inhibition constant for the displacement of specific binding of [125I]-ET (Kd=2 nM) bound to rat pituitary membrane. Type of test: tissue-based, Pituitary gland. In short, it runs like this:
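Pituitary membranes from random-cycling Wistar-derived rats (50 μg protein/tube) incubated 120 min at 37 °C with 25 pM 125I-ET-1 and rising concentrations of unlabeled peptide in 10 mM Tris-HCl/0.1% BSA. Filtered on GF/C and gamma-counted. Nonspecific binding defined with 1 μM ET-1. Ki from displacement curves; two triplicate experiments, mean ± SEM.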

In turn, `CC[C@H](C)[C@H](NC(=O)[C@H](CC(=O)O)NC(=O)[C@H](CC(C)C)NC(=O)[C@@H](Cc1c[nH]c2ccccc12)NC(C)=O)C(=O)N[C@H](C(=O)N[C@@H](Cc1c[nH]c2ccccc12)C(=O)O)[C@@H](C)CC` displayed a Ki of 120 nM.
